Data as given in the supplement of paper PMC12339681.
The entries are a selection whose mix differs from that of the whole data set.

These compounds were tested on PBMC-derived induced microglia-like cells (piMGLC) (assay: synaptosome phagocytic index relative to DMSO control (fraction of DMSO); higher = more phagocytosis). Settings: concentration: 10 uM (2 uM for compounds listed in Table S2); pretreatment time: 24 h; assay time: 3 h.
Experimental: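 PBMC-derived induced microglia-like cells (piMGLCs) in 96-well plates were pretreated for 24 h with CNS-penetrant library compounds (MedChemExpress HY-L028), mostly at 10 uM; Table S2 lists 9 compounds at 2 uM. pHrodo-Red-labelled human iPSC-neuron synaptosomes (3 ug/well) were then added for 3 h, and cells were fixed and imaged by confocal microscopy. Phagocytic index (synaptosome area / cell count, CellProfiler) is a mean over 3 replicate wells on different plates, normalized to the DMSO control. Compounds leaving <10% of DMSO cell count were marked toxic and given no value.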

Row | SMILES | synaptosome phagocytic index
1 | CNC[C@@H]1OCCc2ccsc21 | 0.103
